Test results: ChEMBL document CHEMBL4321881 (J Med Chem, 2020)

Assays:
[1] = in vivo; conditions: CD1, mouse, brain/plasma, po, 100 mg/kg
[2] = in vivo; conditions: CD1, mouse, brain/plasma, po, 5 mg/kg

In the case of `C[C@H](Nc1ccc(C#N)n(C)c1=O)c1cc2cc(Cl)ccc2[nH]c1=O` [OLUTASIDENIB], the Kp [1] is reported as 0.38 and the Kp [2] is reported as 0.24.
